Results published in PubChem BioAssay AID504558 (Broad Institute, 2011).
The entries are a selection whose mix differs from that of the whole data set. Some structures show a salt or complex split into parts, the way the source records it. The source made the active and inactive calls. Cut-off read from the data, not from the text of the source: active = inhibition above about 41%; inconclusive = no clear call, values can overlap the other calls; inactive = below that.

experiment: EBV LMP1-driven NF-kappaB luciferase reporter inhibitors, primary screen, cell-based, luminescence, single point (AID 504558); details: LMP1-induced NF-kappaB luciferase reporter cells, at 12.5 µM, active compounds read high;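 note: 0% = neutral control wells and 100% = reference inhibitor control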

Compound | inhibition
Cc1cc(C)cc(OP(C)(N)=O)c1 (centres undefined) | inactive: -5.86%
COc1ccc(OP(C)(=O)Nc2cccc(F)c2)cc1 (centres undefined) | inactive: -3.25%
COc1ccccc1OP(C)(=O)Nc1cc(Cl)ccc1C (centres undefined) | inactive: -2.56%
Cc1ccc(NP(C)(=O)Oc2ccccc2)c(C)c1 (centres undefined) | inactive: 10.4%
COc1ccccc1OP(C)(=O)Nc1ccc(C)cc1 (centres undefined) | inactive: -1.18%
CCOC(=O)c1ccc(NP(C)(=O)Oc2ccccc2)cc1 (centres undefined) | inactive: -4.85%
O=[N+]([O-])c1ccc2c(c1)C=Nc1ccccc1O2 | inactive: 10.4%
Cc1cccc(C)c1OP(C)(N)=O (centres undefined) | inactive: -12.2%
CC(C)(C)c1ccc(OP(C)(=O)Nc2ccc(SC(F)(F)F)cc2)cc1 (centres undefined) | inactive: 2.86%
O=[N+]([O-])c1cc([N+](=O)[O-])c(Nc2cccnc2)c([N+](=O)[O-])c1 | inactive: -9.25%
CCN(CC)CCCOC(=O)C(O)(c1ccccc1)c1ccccc1 | inactive: -10.8%
CP(=O)(Nc1ccccn1)Oc1ccc(Cl)cc1 (centres undefined) | inactive: -1.73%
CCOC(=O)c1ccc(NP(C)(=O)Oc2ccc(OC)cc2)cc1 (centres undefined) | inactive: -7.42%
CCOP(C)(=S)SCC(=O)NC(C)C(=O)O (centres undefined) | inactive: -6.94%
Cc1cc(C)cc(OP(C)(=O)Nc2ccc(SC(F)(F)F)cc2)c1 (centres undefined) | inactive: 4.46%
CP(=O)(NC(=O)Nc1ccccc1)Oc1ccccc1 (centres undefined) | inactive: 0.916%
CCc1ccc(OP(C)(=O)N2CCN(c3ccc([N+](=O)[O-])cc3)CC2)cc1 (centres undefined) | inactive: 15.4%
CP(=O)(Oc1ccccc1)OC(c1ccccc1)C(F)(F)F (centres undefined) | inactive: -2.61%
Cc1cccc(C)c1OP(C)(=O)Nc1ccc(SC(F)(F)F)cc1 (centres undefined) | inactive: -4.35%
Cc1ccc(Nc2c([N+](=O)[O-])cc([N+](=O)[O-])cc2[N+](=O)[O-])cc1 | inactive: -2.37%
CP(=O)(Nc1ccccc1Br)Oc1ccccc1 (centres undefined) | inactive: 1.17%
COc1ccccc1OP(C)(=O)Nc1ccccc1 (centres undefined) | inactive: 1.7%
CP(=S)(Nn1cnnc1)Oc1ccccc1 (centres undefined) | inactive: -7.63%
CCCOc1ccc(NP(C)(=O)Oc2ccc(Cl)cc2)cc1 (centres undefined) | inactive: 6.26%
CP(=O)(Nc1ccc(SC(F)(F)F)cc1)Oc1ccccc1 (centres undefined) | inactive: 7.17%
CN1CCCCC1COC(=O)C1(O)c2ccccc2CCc2ccccc21 (centres undefined) | inactive: 4.47%
COc1ccccc1OP(C)(=O)Nc1c(C)cccc1C (centres undefined) | inactive: -12.4%

Compound | inhibition
CCOC(=O)C(CC)C1=NC(C)(C)Cc2ccccc21.O=[N+]([O-])c1cc([N+](=O)[O-])c(O)c([N+](=O)[O-])c1 (centres undefined) | inactive: -1.64%
CC1=C2N=C(C=C3N=C(C(C)=C4[N-][C@@](C)([C@@H]5N=C1[C@](C)(CCC(=O)NC[C@@H](C)OP(=O)([O-])O[C@H]1[C@@H](O)[C@@H](n6cnc7cc(C)c(C)cc76)O[C@@H]1CO)[C@H]5CC(N)=O)[C@@](C)(CC(N)=O)[C@@H]4CCC(N)=O)[C@@](C)(CC(N)=O)[C@@H]3CCC(N)=O)C(C)(C)[C@@H]2CCC(N)=O.[C-]#N.[Co+3] | inactive: -5.13%
O=[N+]([O-])c1cc([N+](=O)[O-])c(Nc2nnnn2CCO)c([N+](=O)[O-])c1 | inactive: -1.49%
Cc1nc2ccc3ccccc3c2s1.O=[N+]([O-])c1cc([N+](=O)[O-])c(O)c([N+](=O)[O-])c1 | inactive: 0.917%
O=[N+]([O-])c1cc([N+](=O)[O-])c(-c2cnn(-c3ccccc3)c2)c([N+](=O)[O-])c1 | inactive: -14.2%
O=[N+]([O-])c1cc([N+](=O)[O-])c(-n2nnc3ccccc32)c([N+](=O)[O-])c1 | inactive: 3.02%
Cc1ccc(C)c(NP(C)(=O)Oc2ccccc2)c1 (centres undefined) | inactive: -1.93%
Cc1cc(C)cc(OP(C)(=O)Nc2ccccn2)c1 (centres undefined) | inactive: 6.35%
CP(=O)(Nc1cccc(Br)c1)Oc1ccccc1 (centres undefined) | inactive: -4.34%
CCOC(=O)c1ccc(NP(C)(=O)Oc2cc(C)cc(C)c2)cc1 (centres undefined) | active: 69.1%
Cc1cc(C)cc(OP(C)(=O)Nc2ccc(C)cc2C)c1 (centres undefined) | inactive: -10.9%
COc1ccccc1OP(C)(=O)Nc1cccc(Br)c1 (centres undefined) | inactive: 3.84%
CC1=NCCc2c1[nH]c1ccccc21.O=[N+]([O-])c1cc([N+](=O)[O-])c(O)c([N+](=O)[O-])c1 | inactive: -8.55%
O=C(O)c1cccc(Nc2c([N+](=O)[O-])cc([N+](=O)[O-])cc2[N+](=O)[O-])c1 | inactive: -6.29%
CP(=O)(Nc1ccccc1)Oc1ccc(F)cc1 (centres undefined) | inactive: -5.06%
O=[N+]([O-])c1cc([N+](=O)[O-])c(OC2CCCCC2O)c([N+](=O)[O-])c1 (centres undefined) | inactive: -0.534%
CCCCCOc1ccc(NP(C)(=O)Oc2ccc(Cl)cc2Cl)cc1 (centres undefined) | inactive: -6.12%
Cc1c([N+](=O)[O-])cc([N+](=O)[O-])c(Br)c1[N+](=O)[O-] | inactive: 2.8%
CCN(CC)CCCOC(=O)C(O)(c1ccccc1)C1CCCCC1 (centres undefined) | inactive: 3.52%
CCOC(=O)c1ccc(NP(C)(=O)Oc2ccc(F)cc2)cc1 (centres undefined) | inactive: -7.02%
COc1ccc(OP(C)(=O)Nc2ccc(SC(F)(F)F)cc2)cc1 (centres undefined) | inactive: 18.6%
COc1ccc2c(c1O)-c1c(O)c(OC)cc3c1[C@H](C2)[N+](C)(C)CC3.O=[N+]([O-])c1cc([N+](=O)[O-])c([O-])c([N+](=O)[O-])c1[O-] | inactive: -0.216%
O=C(OC1CN2CCC1CC2)c1ccc([N+](=O)[O-])cc1 (centres undefined) | inactive: -2.23%
O=C(OCCN1CCN(CCOCc2ccccc2)CC1)C(O)(c1ccccc1)c1ccccc1 | inactive: 1.91%
CP(=O)(Nc1ccccc1F)Oc1ccccc1 (centres undefined) | inactive: -3.24%
CC(C)c1ccc(OP(C)(=O)Nc2ccc(SC(F)(F)F)cc2)cc1 (centres undefined) | inactive: 6.7%
O=[N+]([O-])c1cc([N+](=O)[O-])c(Nc2ccc(Cl)cc2)c([N+](=O)[O-])c1 | inactive: -20.7%
